Experimental data reported in PubChem BioAssay AID435022 (Sanford-Burnham Center for Chemical Genomics, 2010).
The entries are a selection whose mix differs from that of the whole data set. Active and inactive are the calls of the source. Cut-off read from the data, not from the text of the source: active = inhibition above about 35%; inactive = the rest.

Assay: inhibitors of PMA/ionomycin-induced NF-kB reporter, 697 cells, primary screen, B-cell NF-kB inhibitor project, cell-based, luminescence, uHTS (AID 435022)
Conditions: 697 B-cell NF-kB luciferase reporter, 16 h, at 4 µM, stronger effect = higher value

SMILES	inhibition
Cc1ccc(OP(=O)(Nc2nccs2)Oc2ccc(C)cc2)cc1	inactive: -8.5%
CN1CCCC(OC(=O)C(c2ccccc2)c2ccccc2)C1 (stereo unspecified)	inactive: 1.47%
Clc1ccc(Cl)c(NC2=NCC(CBr)S2)c1 (stereo unspecified)	inactive: 6.06%
O=[N+]([O-])c1cc([N+](=O)[O-])c(CCN2CCOCC2)c([N+](=O)[O-])c1	inactive: 4.42%
CCN(N=Nc1nonc1N)c1nonc1N	inactive: 20.3%
CC(=O)Nc1ccc([As](=O)(O)O)cc1	inactive: 5.45%
O=C(O)c1ccccc1[As](=O)(O)O	inactive: -11.7%
O=P(Nc1nc2ccc(Cl)cc2s1)(c1ccccc1)c1ccccc1	inactive: -4.95%
Cc1cc(SC(NC(=O)c2ccc(F)cc2)C(Cl)(Cl)Cl)ncn1 (stereo unspecified)	inactive: 6.13%
CCOP(=O)(Nc1ccccc1)OCC	inactive: -15.3%
CN(C(=O)Cc1ccc(Cl)c(Cl)c1)[C@H]1CCCC[C@@H]1N1CCCC1	inactive: 6.35%
Cc1ccc(NP(=O)(Oc2ccccc2F)Oc2ccccc2F)nc1	inactive: -2.95%
COC(=O)c1cc2c(s1)N=C(c1ccccc1)N(C)P2(=O)N1CCOCC1 (stereo unspecified)	inactive: 14.7%
Cc1ccc(OP(=O)(Nc2ccccn2)Oc2ccc(C)cc2)cc1	inactive: 9.06%
CC(=O)NC(SC(=S)N(CC(C)C)CC(C)C)C(Cl)(Cl)Cl (stereo unspecified)	inactive: -71.5%
O=C(OC1CN2CCC1CC2)c1ccccc1 (stereo unspecified)	inactive: -8.68%
CCC(=O)N1C2C3N(C(=O)CC)C1C1N(C(=O)CC)C(C(N1C(=O)CC)N3C(=O)CC)N2C(=O)CC	inactive: -10.4%
CC(NC(=O)COC(=O)C(O)(c1ccccc1)c1ccccc1)c1ccccc1 (stereo unspecified)	inactive: -2.25%
Cc1ccccc1OP(=O)(Nc1ccccn1)Oc1ccccc1C	inactive: 1.2%
CN(C)C(=O)Oc1noc2ccccc12	inactive: 5.18%
O=C(NC1CCS(=O)(=O)C1)NP(=S)(Oc1ccccc1)Oc1ccccc1 (stereo unspecified)	inactive: 17.6%
CCNC(=S)/N=C(\N)N[N+](=O)[O-]	inactive: 12.3%
c1ccc(-c2nn[nH]n2)c(-c2nn[nH]n2)c1	inactive: -5.03%

SMILES	inhibition
CCOC(=O)NC(Sc1ccccc1)C(Cl)(Cl)Cl (stereo unspecified)	inactive: 0.442%
Cc1ccc(NP(=O)(Oc2cccc(C)c2)Oc2cccc(C)c2)nc1	inactive: -10.9%
CC(=O)c1ccc(N2CC2c2ccncc2)cc1 (stereo unspecified)	inactive: 9.26%
Cc1ccccc1CN(C)C(=O)COC(=O)C(O)(c1ccccc1)c1ccccc1	inactive: 15%
C[C@H]1OP(=O)(Oc2ccccc2)C[C@@H]2O[C@@H]21 (stereo partly specified)	inactive: 9.17%
C[C@@H]1C=CCP(=O)(Oc2ccccc2)O1 (stereo partly specified)	inactive: 11.2%
CC(=O)Nc1ccc([As](=O)(O)O)c(O)c1	inactive: 2.53%
CC(=O)Nc1ccc(Oc2c([N+](=O)[O-])cc([N+](=O)[O-])cc2[N+](=O)[O-])cc1	inactive: 15%
O=P1(Nc2nc3ccc(Cl)cc3s2)COc2ccccc2O1 (stereo unspecified)	inactive: 1.63%
CCOc1ccc(C2=NCC(CBr)S2)cc1 (stereo unspecified)	inactive: 8.95%
CC(C)(C)C(=O)NC(Sc1ccccc1)C(Cl)(Cl)Cl (stereo unspecified)	inactive: 7.58%
O=P(Nc1nccs1)(c1ccccc1)c1ccccc1	inactive: -3.43%
CC(C)C(=O)NC(Sc1ccccc1)C(Cl)(Cl)Cl (stereo unspecified)	inactive: -10.5%
c1nnnn1CCn1cnnn1	inactive: -20.8%
O=[N+]([O-])c1ncn(CCn2cnc([N+](=O)[O-])n2)n1	inactive: 17.4%
O=[As](O)(c1ccccc1)c1ccc(O)cc1	inactive: 15.4%
C(Cc1nn[nH]n1)Cc1nn[nH]n1	inactive: 19.4%
Nc1ccc([As](=O)(O)c2ccc([N+](=O)[O-])cc2)cc1	inactive: -4.43%
O=C(OC1CN2CCC1CC2)c1cccc(Cl)c1 (stereo unspecified)	inactive: 17.9%
CN(C)C1(CNC(=O)c2ccc(Cl)c(S(N)(=O)=O)c2)CCCCC1	inactive: 16.1%
O=P(Nc1ccccn1)(c1ccc(Br)cc1)c1ccc(Br)cc1	inactive: 18.2%
O=P(Nc1nc2ccccc2s1)(c1ccccc1)c1ccccc1	inactive: -1.69%
C[C@H]1OP(=O)(Oc2ccccc2)[C@H](O)[C@H](O)[C@H]1N=[N+]=[N-] (stereo partly specified)	inactive: 5.4%
